Usually Ki stands for the dissociation constant of the complex between target and ligand, obtained from inhibition or displacement. A higher Ki goes with a looser hold on the target.

Protein sequences, listed by entry. Tags and fused reporters are not part of them.
UniProt P61169, whole entry: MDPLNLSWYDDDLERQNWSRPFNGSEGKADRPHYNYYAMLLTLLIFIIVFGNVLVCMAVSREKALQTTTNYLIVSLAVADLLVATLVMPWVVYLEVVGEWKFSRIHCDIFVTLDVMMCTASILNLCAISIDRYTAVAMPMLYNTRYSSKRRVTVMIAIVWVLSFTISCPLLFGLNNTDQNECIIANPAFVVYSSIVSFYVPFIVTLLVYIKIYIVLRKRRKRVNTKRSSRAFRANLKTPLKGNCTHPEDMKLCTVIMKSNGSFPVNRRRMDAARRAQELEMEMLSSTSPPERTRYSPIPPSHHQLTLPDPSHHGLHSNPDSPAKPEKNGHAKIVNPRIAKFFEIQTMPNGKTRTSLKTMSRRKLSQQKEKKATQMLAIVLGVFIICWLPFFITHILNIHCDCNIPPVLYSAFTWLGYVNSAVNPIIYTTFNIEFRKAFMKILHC
UniProt P19327, whole entry: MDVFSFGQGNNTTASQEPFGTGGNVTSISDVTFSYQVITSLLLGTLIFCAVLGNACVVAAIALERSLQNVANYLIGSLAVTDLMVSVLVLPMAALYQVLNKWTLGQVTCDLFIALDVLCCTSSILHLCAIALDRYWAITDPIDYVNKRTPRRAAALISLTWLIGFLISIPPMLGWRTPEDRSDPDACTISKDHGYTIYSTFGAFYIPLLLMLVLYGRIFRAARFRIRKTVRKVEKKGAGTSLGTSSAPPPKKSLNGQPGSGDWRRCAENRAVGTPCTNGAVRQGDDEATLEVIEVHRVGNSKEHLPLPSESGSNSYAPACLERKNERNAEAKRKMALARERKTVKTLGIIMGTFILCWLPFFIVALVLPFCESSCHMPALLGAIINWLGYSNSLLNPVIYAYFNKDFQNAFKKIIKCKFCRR

Some results are limits rather than exact numbers.

The record followed here is US7547700B2, “Aryl-[4-halo-4(heteroarylmethylamino)-methyl]-piperidin-1-1yl]-methanone derivatives, methods for production and use thereof as medicaments” (PIERRE Fabre Medicament, priority 2002, dated 2009).

The target in assay [1] is T1, dopaminergic D2 receptors (Rattus norvegicus, UniProt P61169).
T1 construct: For these experiments, rat striatum is used; from tissue; host or cells: rat striatum homogenate
The experiment in a line: Affinity for the D2 receptors, displacement of [3H]YM-09151-2. It is filed as binding. The settings on record: D2 pKi, rat striatum, [3H]YM-09151-2 displacement, mean of at least 3 experiments. Here is the method:
Measurement of the affinity of the compounds of the invention for the D2 receptors
For these experiments, rat striatum is used. After thawing the brain in Tris-HCl buffer (50 mmol, pH=7.4) at 25° C., the striatum is removed and homogenized in 40 volumes of buffer maintained at 4° C. The homogenate is centrifuged at 20 000×g for 10 minutes, and the centrifugation pellet is suspended in the same volume of buffer and recentrifuged. The final pellet is suspended in cold Tris-HCl reaction buffer at 25° C. containing 120 mmol of NaCl and 5 mmol of KCl. The final concentration of tissue in the incubation medium is 2 mg/tube. […] The nonspecific binding is defined by using […] of (+)-butaclamol. The reaction tubes are incubated at 23° C. for 60 minutes and their content is then rapidly filtered through Whatman GF/B filters, and the tubes are rinsed twice with 5 ml of Tris-HCl buffer at 25° C. The radioactivity collected on the filter is analyzed by liquid scintillation, by adding 4 ml of scintillant liquid (Emulsifier Safe, Packard). All the experiments are performed in triplicate.
For orientation: Loss of bound radioactivity is the signal in a displacement assay; it reports binding, not function.

For another assay, the target named is T2, 5-HT1A receptors (Rattus norvegicus, UniProt P19327).
T2 construct: For these experiments, rat cerebral cortices are used; from tissue; host or cells: rat cerebral cortex homogenate
The experiment in a line: Affinity for the 5-HT1A receptors, displacement of [3H]8-OH-DPAT. It is filed as binding. The settings on record: ratio of 5-HT1A to D2 affinity. Here is the method: Measurement of the affinity of the compounds in the invention for the 5-HT1A receptors
For these experiments, rat cerebral cortices are used. After thawing the brain in Tris-HCl buffer (50 mmol, pH=7.4) at 25° C., the cerebral cortex is removed and homogenized in 20 volumes of buffer maintained at 4° C. The homogenate is centrifuged at 39 000×g for 10 minutes, and the centrifugation pellet is suspended in the same volume of buffer and recentrifuged. After resuspending under the same conditions, the homogenate is incubated for 10 minutes at 37° C. and then recentrifuged. The final pellet is suspended in cold Tris-HCl reaction buffer (50 mmol) at 25° C. containing […] of pargyline, 4 mmol of CaCl2 and 0.10% of ascorbic acid. The final concentration of tissue in the incubation medium is 10 mg/tube.
The nonspecific binding is defined by using […] of serotonin. The reaction tubes are incubated at 23° C. for 30 minutes and their content is then rapidly filtered under vacuum through Whatman GF/B filters, and the tubes are rinsed with twice 5 ml of tris-HCl buffer at 25° C. The radio-activity collected on the filter is analyzed by liquid scintillation, by adding 4 ml of scintillant liquid (Emulsifier Safe, Packard, Warrenville, USA). All the experiments are performed in triplicate.

Regarding `Cc1ccc(CNCC2(F)CCN(C(=O)c3ccc(F)c(Cl)c3)CC2)nc1` [Compound I-66, (3-chloro-4-fluorophenyl)(4-fluoro-4-{[(5-methylpyridin-2-ylmethyl)-amino]methyl}piperidin-1-yl)methanone, reference compound], in assay [1], the Ki is > 10 µM. Besides, at 5-HT1A receptors, the “Selectivity 5-HT1A/D2” value is >1000.
